Source: US20070059799A1

Tests used:
Settings in all cases: remark: other sources report otherwise
HLA-A*03 (human) = biological target: HLA-A*03 (human)
HLA-A*6801 (human) = biological target: HLA-A*6801 (human)
HLA-A*3101 (human) = biological target: HLA-A*3101 (human)

Binder | IC50 (HLA-A*03 (human)) [µM] | IC50 (HLA-A*6801 (human)) [nM] | IC50 (HLA-A*3101 (human)) [nM]
TTDLEAYFK (modifications not checked) [peptide 1.0215] | 18.3 | 471 | –
LLPIFFCLWVY (modifications not checked) [peptide 26.0549] | – | – | 2610
